The numbers were not newly measured in PMC11924319, “Nanobody-Targeted Conditional Antimicrobial Therapeutics” (ACS Nano, 2025), which cites them from elsewhere.

The conditions of this data set: intravenous formulation, phase III.

On to murepavadin [POL], for which the clinical safety outcome is given as “increased incidence of acute kidney injury”.
